Biological target: Lysosomal acid glucosylceramidase (Homo sapiens) (UniProt P04062)
Assay: Induction of wild type beta glucosidase activity in fibroblasts derived from Gaucher disease patient after 4 days relative to control

- fold change (FC): 1.5
SMILES: CCCCCCCCN[C@@H]1C=C(CO)[C@@H](O)[C@H](O)[C@H]1O
